Experimental data published in US20030219858A1 (MCGILL UNIVERSITY, published 2003).

Biological target: T1, human heteromultimeric ASIC-2S.2 channel (human ASIC2A + human ASIC3) (human, UniProt Q16515 1-512; Q9UHC3 1-531)
T1 chain 1: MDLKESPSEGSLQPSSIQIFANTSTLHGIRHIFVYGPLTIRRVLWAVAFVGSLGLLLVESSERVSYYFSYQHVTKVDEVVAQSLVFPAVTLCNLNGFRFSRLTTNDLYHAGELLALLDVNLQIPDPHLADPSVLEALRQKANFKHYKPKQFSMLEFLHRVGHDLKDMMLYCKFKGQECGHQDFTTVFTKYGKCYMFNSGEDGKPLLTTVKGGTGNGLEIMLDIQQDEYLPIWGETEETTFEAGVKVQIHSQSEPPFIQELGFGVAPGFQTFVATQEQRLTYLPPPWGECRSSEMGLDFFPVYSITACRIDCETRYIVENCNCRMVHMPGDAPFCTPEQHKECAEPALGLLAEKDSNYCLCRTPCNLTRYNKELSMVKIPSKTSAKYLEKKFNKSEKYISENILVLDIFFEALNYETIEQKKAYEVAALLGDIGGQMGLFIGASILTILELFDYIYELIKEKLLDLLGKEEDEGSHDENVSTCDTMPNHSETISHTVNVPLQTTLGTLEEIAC
T1 chain 2: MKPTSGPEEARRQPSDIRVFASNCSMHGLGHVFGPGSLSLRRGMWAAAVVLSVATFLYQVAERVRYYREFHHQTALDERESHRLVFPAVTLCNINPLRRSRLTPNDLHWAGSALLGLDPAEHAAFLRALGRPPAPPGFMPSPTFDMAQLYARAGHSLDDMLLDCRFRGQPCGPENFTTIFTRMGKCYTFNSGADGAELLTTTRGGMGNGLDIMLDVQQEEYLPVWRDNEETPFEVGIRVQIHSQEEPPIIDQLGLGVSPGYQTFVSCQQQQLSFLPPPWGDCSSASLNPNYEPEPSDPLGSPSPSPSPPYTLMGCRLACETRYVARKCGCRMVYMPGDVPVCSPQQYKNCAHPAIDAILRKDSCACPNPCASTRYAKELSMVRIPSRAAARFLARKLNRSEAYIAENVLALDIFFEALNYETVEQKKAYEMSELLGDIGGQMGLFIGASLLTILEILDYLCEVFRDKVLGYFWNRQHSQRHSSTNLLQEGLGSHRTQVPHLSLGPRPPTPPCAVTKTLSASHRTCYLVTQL
Assay: cell-based or functional assay

## FMRF (C-terminal amide) [FMRFamide]
  EC50 of potentiation of currents induced by pH 4: 13 µM
